Experimental findings from patent US6716845B2, “Barbituric acid derivatives” (Hoffmann-La Roche Inc., priority 2001, dated 2004) are described below.

By UniProt entry, the sequences of proteins in these tests, tags left out. Residues count along the entry.
UniProt P22894, 100-262 limits assumed: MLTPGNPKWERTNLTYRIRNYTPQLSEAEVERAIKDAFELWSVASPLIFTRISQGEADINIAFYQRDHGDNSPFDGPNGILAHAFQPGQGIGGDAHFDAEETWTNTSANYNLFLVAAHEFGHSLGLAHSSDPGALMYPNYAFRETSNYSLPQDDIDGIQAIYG

As a reminder, the IC50 is the concentration that inhibits the measured activity by half.

For the assay, the target named is MMP-8, catalytic domain (Homo sapiens, UniProt P22894). Nature of the assay: Inhibition of MMP-8 catalytic domain, fluorogenic DNP-heptapeptide substrate cleavage. Particulars: read-out: IC50 Values of MMP-Inhibitor (vs. MMP-8, catalytic domain); catalytic domain of human neutrophil collagenase (MMP-8); substrate DNP-Pro-Leu-Gly-Leu-Trp-Ala-D-Arg-NH2; 25° C.

In the case of `CCCCCCCCC1(N2CCN(c3ccc([N+](=O)[O-])cc3)CC2)C(=O)NC(=O)NC1=O`, the IC50 amounted to 60 nM.
